For this assay, the system named is HepG2. In words: Transactivation of PPAR expressed in HepG2 cells after 20 hrs by luminescence assay. It is filed as cell-based.

For the compound `COc1ccc([C@@H](O)[C@H](O)CO)cc1OC`, the Activity result was “Dose-dependent effect”.

Consider `COc1cc([C@@H]2OC[C@@H]3[C@H]2CO[C@H]3c2ccc3c(c2)OCO3)ccc1O` [PIPERITOL], for which the Activity result was “Dose-dependent effect”.

`CC(C)(O)C1=C[C@@H](O)[C@@](C)(O)CC1`: the Activity result is “Dose-dependent effect”.

With `COc1cc([C@H]2OC[C@@H]3[C@H]2CO[C@H]3c2ccc3c(c2)OCO3)ccc1O` [PLUVIATILOL], the Activity entry was “Dose-dependent effect”.

On to `C/C=C\CC/C=C/C=C/C(=O)NCC(C)C`, for which the Activity result was “Dose-dependent effect”.

For `COc1cc([C@H]2OC[C@H]3[C@@H]2CO[C@H]3c2ccc3c(c2)OCO3)cc(OC)c1O`, the Activity result was “Dose-dependent effect”.
